From patent US20240100072A1, “SUBCUTANEOUSLY ADMINISTERED TREATMENTS FOR ADVANCED PARKINSON'S DISEASE” (AbbVie Inc., priority 2021, published 2024)

Tested on: plasma proteins
Assay: Distribution: erythrocyte/plasma partitioning, plasma protein binding, blood-brain barrier
Format: in vitro ADME
Text: The partitioning ratio for levodopa between erythrocytes and plasma is approximately 1. Levodopa has negligible binding to plasma proteins (<10%). Levodopa is transported into the brain by the carrier mechanism for large neutral amino acids.
Carbidopa is approximately 36% bound to plasma protein.
Both foslevodopa and foscarbidopa have low binding to plasma proteins (24%-26%).

SMILES: C[C@@](Cc1ccc(O)c(O)c1)(NN)C(=O)O [carbidopa]
- binding to plasma proteins: approximately 36%
